Experimental data reported in patent publication US20220402950A1, “SUBSTITUTED BENZIMIDAZOLES AS PAD4 INHIBITORS” (BRISTOL-MYERS SQUIBB COMPANY, priority 2018, published 2022).
pIC50: −log10 of the molar value. Read-outs that look alike come from different tables or passages of the source.

The chains behind the UniProt entries cited, without tags or fusion partners.
UniProt Q9UM07, whole entry: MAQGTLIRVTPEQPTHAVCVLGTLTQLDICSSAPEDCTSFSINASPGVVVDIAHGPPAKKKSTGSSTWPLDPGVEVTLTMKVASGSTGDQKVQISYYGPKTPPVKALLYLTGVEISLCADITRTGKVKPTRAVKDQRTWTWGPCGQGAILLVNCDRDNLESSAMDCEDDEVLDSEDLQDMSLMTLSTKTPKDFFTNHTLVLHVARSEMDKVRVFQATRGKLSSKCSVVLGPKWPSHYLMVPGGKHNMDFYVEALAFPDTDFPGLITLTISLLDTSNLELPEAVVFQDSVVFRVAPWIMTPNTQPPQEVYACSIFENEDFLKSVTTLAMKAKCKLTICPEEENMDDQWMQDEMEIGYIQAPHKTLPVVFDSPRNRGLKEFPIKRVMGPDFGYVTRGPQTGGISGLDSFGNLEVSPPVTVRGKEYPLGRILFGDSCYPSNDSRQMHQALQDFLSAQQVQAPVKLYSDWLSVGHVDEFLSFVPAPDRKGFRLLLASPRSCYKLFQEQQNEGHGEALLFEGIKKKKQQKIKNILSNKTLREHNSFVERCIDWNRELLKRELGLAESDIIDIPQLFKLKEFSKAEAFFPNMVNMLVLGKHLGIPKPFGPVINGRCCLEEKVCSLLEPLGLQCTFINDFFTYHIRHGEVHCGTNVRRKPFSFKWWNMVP

Biological target: human PAD4 (hPAD4) (Homo sapiens, UniProt Q9UM07)
Assay: RFMS Human PAD4 Functional Assay
Type: biochemical
Settings: 5 nM hPAD4, 250 μM BAEE
Experimental: RFMS Human PAD4 Functional Assay:
Compounds were solubilized in 100% DMSO to achieve a 10 mM compound concentration. Compound stock solutions were stored at RT. A series of dilutions were prepared in DMSO and mixed 8 times with 20 μL mixing volume. Final top concentration of compound in the assay is 50 μM.
0.13 μL of compound solution was added to 13 μL of 10 nM PAD4 in assay buffer. After 30 min 13 μl of 500 μM of BAEE was added in 25 mM hepes, pH 7.5, 5 mM NaCl, 1 mM DTT, 0.2 mg/ml BSA, 0.01% CHAPS, 50 μM Calcium, 5 μM TPEN was added and the reaction incubated for 90 min at 37° C. The enzymatic reaction was quenched by addition of 15 μl of 6.1N TCA, 100% Final Concentration is 20%, 35 μl of 8.5 mM phenyl glyoxal (final concentration 4 mM) is then added and the reaction is incubated for 30 min at 37° C.
After 30 minutes the plates are spun down to remove all precipitate. The enzyme reaction was quenched with an equal volume of methanol containing internal standard (modified citrulline). Samples were loaded onto the Rapid Fire RF300 system (Agilent) wherein they were first sipped for 1000 ms and then directly loaded to a C18 separations cartridge using a mixture of acetonitrile containing 0.01% formic acid for 3000 ms desalting. The flow rate of the mobile phase was 1.5 ml/min. […]

Row | Molecule | pIC50 (hPAD4 RFMS IC50, human PAD4, rapid-fire mass spectrum (RFMS) assay) | pIC50 (human PAD4, rapid-fire mass spectrum (RFMS) assay, read-out: hPAD4 RFMS IC50)
1 | COc1cc(C(=O)N2CC3CCC2[C@@H]3N)cc2nc(-c3cc4cccc(Nc5ccccn5)c4n3CC3CC3)n(C)c12 (stereo partly drawn) [Example 168, ((7R)-7-amino-2-azabicyclo[2.2.1]heptan-2-yl)(2-(1-(cyclopropylmethyl)-7-(pyridin-2-ylamino)-1H-indol-2-yl)-7-methoxy-1-methyl-1H-benzo[d]imidazol-5-yl)methanone] | 6.71 | 
2 | ((1R,4R,7R)-7-amino- 2- azabicyclo[2.2.1]heptan- 2-yl)(2-(7-chloro-1- (cyclopropylmethyl)- 1H-indol-2-yl)-7- methoxy-1-methyl-1H- benzo[d]imidazol-5- yl)methanone [Example 144] |  | 6.71
